Values quoted from earlier work as cited in US20060019934A1, “Anti-HIV-1 activity of betulinol derivatives” (priority 2004, published 2006).

Details: Sun et al. 1998; cited from earlier work

Compound	therapeutic index
C=C(C)[C@@H]1CC[C@]2(C(=O)O)CC[C@]3(C)[C@H](CC[C@@H]4[C@@]5(C)CCC(=O)C(C)(C)[C@@H]5CC[C@]43C)[C@@H]12 [betulonic acid]	low
C=C(C)[C@@H]1CC[C@]2(COC(C)=O)CC[C@]3(C)[C@H](CC[C@@H]4[C@@]5(C)CC[C@H](OC(C)=O)C(C)(C)[C@@H]5CC[C@]43C)[C@@H]12 [betulin diacetate]	low
